# Antibody variant affinities, Ab-95 light chain, assay 2

Reference: Engelhart et al. 2022, doi:10.1038/s41597-022-01779-4. File: FLAb, binding data.

Target peptide (SARS-CoV-2 spike, HR2 region): PDVDLGDISGINAS

The variants keep the heavy chain, the linker and the frameworks of Ab-95 (scFv order VH, a (GGGGS)3 linker, VL).
VH: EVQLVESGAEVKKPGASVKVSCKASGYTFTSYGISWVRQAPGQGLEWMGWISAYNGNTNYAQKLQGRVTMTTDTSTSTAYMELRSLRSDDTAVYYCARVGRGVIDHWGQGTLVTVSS
VL: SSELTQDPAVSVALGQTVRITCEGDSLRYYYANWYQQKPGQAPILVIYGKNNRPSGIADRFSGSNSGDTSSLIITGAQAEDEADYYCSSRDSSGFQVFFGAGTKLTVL

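Phage display of a naive human antibody library on the peptide gave the parent. Variants in AAYL52 differ from the parent at up to three CDR positions; double and triple changes were sampled at random. AlphaSeq pools MATa yeast showing the antibodies with MATalpha yeast showing the peptide. Pairs that bind mate more often; barcode pairs of the diploids are counted by sequencing. The ratio of observed to expected reads was calibrated, replicate by replicate, on BCL2-family standards whose Kd was known from biolayer interferometry. There are three technical replicates.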

Variants are written as CDR1, CDR2 and CDR3 of the light chain (limits as in the source). Parent: EGDSLRYYYAN, GKNNRPS, SSRDSSGFQVF. Scale: log10 of Kd in nM, estimated from mating counts; low values are strong binders. Replicates are averaged; those with no signal do not enter the mean. "ND" marks a missing value. The strain was present, yet no cells mated with the target were sequenced in that replicate, which points to weak or no binding. Three control strains display no target. For library AAYL52, 28% of the pairings with them gave a signal, with a median of 3.91 and one signal in twenty below 2.90, so weak values seen in few replicates may be background. Also given: how often the same scFv was detected with the empty control strains, with their mean in brackets.

{"CDR-L1": "EGDSLRYYYHN", "CDR-L2": "GKNNRPS", "CDR-L3": "SSRDLSGFQNF", "log10 Kd (nM) by replicate": "ND 5.64 ND", "mean log10 Kd (nM)": "5.64", "empty controls": "5/9 (4.23)"}
{"CDR-L1": "EGDSLRYYNAN", "CDR-L2": "GKNNRPS", "CDR-L3": "SSRDESGFQVE", "log10 Kd (nM) by replicate": "1.20 1.01 1.17", "mean log10 Kd (nM)": "1.13", "empty controls": "2/9 (3.81)"}
{"CDR-L1": "EGDVLRYCYAN", "CDR-L2": "GKNNRPS", "CDR-L3": "SIRDSSGFQVF", "log10 Kd (nM) by replicate": "ND ND ND", "mean log10 Kd (nM)": "ND", "empty controls": "1/9 (4.51)"}
{"CDR-L1": "EGDSRRYYYAN", "CDR-L2": "GWNNRQS", "CDR-L3": "SSRDSSGFQVF", "log10 Kd (nM) by replicate": "ND ND 2.92", "mean log10 Kd (nM)": "2.92", "empty controls": "1/9 (4.96)"}
{"CDR-L1": "EGDSLDYYYAN", "CDR-L2": "LWNNRPS", "CDR-L3": "SSRDSSGFQVF", "log10 Kd (nM) by replicate": "ND ND ND", "mean log10 Kd (nM)": "ND", "empty controls": "1/9 (4.76)"}
{"CDR-L1": "EGDSLDYYYAN", "CDR-L2": "GKWNRKS", "CDR-L3": "SSRDSSGFQVF", "log10 Kd (nM) by replicate": "4.66 3.20 ND", "mean log10 Kd (nM)": "3.93", "empty controls": "5/9 (4.25)"}
{"CDR-L1": "EGDSLRYYYAN", "CDR-L2": "GKNNRPC", "CDR-L3": "SSKDSSPFQVF", "log10 Kd (nM) by replicate": "3.09 3.44 2.35", "mean log10 Kd (nM)": "2.96", "empty controls": "4/9 (4.16)"}
{"CDR-L1": "EGDSLRYFYAN", "CDR-L2": "GKNERPS", "CDR-L3": "SSRDSTGFQVF", "log10 Kd (nM) by replicate": "2.35 2.01 1.35", "mean log10 Kd (nM)": "1.90", "empty controls": "0/9"}
{"CDR-L1": "EGYSLRYEYAN", "CDR-L2": "GKNNRPS", "CDR-L3": "SSRDSSDFQVF", "log10 Kd (nM) by replicate": "1.84 1.99 1.81", "mean log10 Kd (nM)": "1.88", "empty controls": "1/9 (3.45)"}
{"CDR-L1": "EGDSLRPYYAQ", "CDR-L2": "GKNNRPS", "CDR-L3": "SSRDSSHFQVF", "log10 Kd (nM) by replicate": "3.57 3.22 ND", "mean log10 Kd (nM)": "3.39", "empty controls": "5/9 (3.72)"}
{"CDR-L1": "EGDSLRYYYAN", "CDR-L2": "GKNNRPS", "CDR-L3": "SSRNSSMFYVF", "log10 Kd (nM) by replicate": "ND ND ND", "mean log10 Kd (nM)": "ND", "empty controls": "0/9"}
{"CDR-L1": "AGDSLRYYYAN", "CDR-L2": "GKNNRPS", "CDR-L3": "SSRDQSGFQVF", "log10 Kd (nM) by replicate": "1.75 1.62 1.58", "mean log10 Kd (nM)": "1.65", "empty controls": "6/9 (4.21)"}
{"CDR-L1": "EGDSVRYYYWN", "CDR-L2": "GKNNRPS", "CDR-L3": "SERDSSGFQVF", "log10 Kd (nM) by replicate": "ND 3.48 ND", "mean log10 Kd (nM)": "3.48", "empty controls": "2/9 (3.86)"}
{"CDR-L1": "EGDMLRYYYAN", "CDR-L2": "GKNNRPS", "CDR-L3": "SVNDSSGFQVF", "log10 Kd (nM) by replicate": "ND ND 3.91", "mean log10 Kd (nM)": "3.91", "empty controls": "0/9"}
{"CDR-L1": "EGDSLRYYYAN", "CDR-L2": "GKNNRPM", "CDR-L3": "SSRDSIGFQVF", "log10 Kd (nM) by replicate": "5.29 4.86 3.44", "mean log10 Kd (nM)": "4.53", "empty controls": "5/9 (3.84)"}
{"CDR-L1": "EGDSLRYCMAN", "CDR-L2": "QKNNRPS", "CDR-L3": "SSRDSSGFQVF", "log10 Kd (nM) by replicate": "3.28 3.23 3.16", "mean log10 Kd (nM)": "3.22", "empty controls": "5/9 (4.29)"}
{"CDR-L1": "GGDSLMFYYAN", "CDR-L2": "GKNNRPS", "CDR-L3": "SSRDSSGFQVF", "log10 Kd (nM) by replicate": "2.71 2.40 2.81", "mean log10 Kd (nM)": "2.64", "empty controls": "2/9 (4.53)"}
{"CDR-L1": "EGDSLRYYYRN", "CDR-L2": "GKNNRPS", "CDR-L3": "HSRDKSGFQVF", "log10 Kd (nM) by replicate": "ND ND ND", "mean log10 Kd (nM)": "ND", "empty controls": "3/9 (3.00)"}
{"CDR-L1": "CGDSLRYYYQN", "CDR-L2": "GKNNRPS", "CDR-L3": "YSRDSSGFQVF", "log10 Kd (nM) by replicate": "ND ND ND", "mean log10 Kd (nM)": "ND", "empty controls": "0/9"}
{"CDR-L1": "EGDSLRWYCAN", "CDR-L2": "CKNNRPS", "CDR-L3": "SSRDSSGFQVF", "log10 Kd (nM) by replicate": "3.62 5.00 ND", "mean log10 Kd (nM)": "4.31", "empty controls": "5/9 (3.85)"}
{"CDR-L1": "EGDSLRYYYAN", "CDR-L2": "QKNNRPS", "CDR-L3": "SQRDLSGFQVF", "log10 Kd (nM) by replicate": "4.17 4.16 4.22", "mean log10 Kd (nM)": "4.18", "empty controls": "0/9"}
{"CDR-L1": "EGDGLRYYYAN", "CDR-L2": "GKNNRLS", "CDR-L3": "FSRDSSGFQVF", "log10 Kd (nM) by replicate": "2.62 2.69 3.18", "mean log10 Kd (nM)": "2.83", "empty controls": "4/9 (4.26)"}
{"CDR-L1": "EGDSLRYYYPN", "CDR-L2": "GKNNRPG", "CDR-L3": "SSRDSSEFQVF", "log10 Kd (nM) by replicate": "ND ND 2.53", "mean log10 Kd (nM)": "2.53", "empty controls": "1/9 (3.54)"}
{"CDR-L1": "EGDSLRYYYAN", "CDR-L2": "CKNNHRS", "CDR-L3": "SSRDSSGFQVF", "log10 Kd (nM) by replicate": "2.74 3.00 3.96", "mean log10 Kd (nM)": "3.23", "empty controls": "3/9 (3.93)"}

Repeated from above, the 2 best binders with a signal in all replicates:

CDR-L1	CDR-L2	CDR-L3	log10 Kd (nM) by replicate	mean log10 Kd (nM)	empty controls
EGDSLRYYNAN	GKNNRPS	SSRDESGFQVE	1.20 1.01 1.17	1.13	2/9 (3.81)
AGDSLRYYYAN	GKNNRPS	SSRDQSGFQVF	1.75 1.62 1.58	1.65	6/9 (4.21)

Parent in this assay: reference entry 2.31, copy in this library 2.25.